These results are taken from paper PMC6792350 (Environmental Health Perspectives, 2019).

Each structure is given as a SMILES string.

Data set [1] can be described thus: Noncompartmental toxicokinetic analysis of plasma after IV dosing in piglets. The conditions noted are these: from hepatic extraction ratio. How it is done:
Table 1 summarizes the protocol of the experiments and the plasma and urine datasets further considered for TK analyses. A first experiment (Exp. 1) was performed in 8 male piglets age 42 d ( 20.8±1.6kg BW) to investigate oral BPA TK. […] BPA data obtained after IV BPA administrations had already been used to evaluate human BPA clearance using an allometric approach ([Collet et al. 2015]).
For the IV administrations, BPA powder was dissolved in ethanol–propylene glycol (1:49, vol:vol) at 50mg/mL (Exp.1 and 2) and in ethanol–saline (1:2, vol:vol) at 23mg/mL (Exp. 5).
During the first 24 h of sampling, the piglets were housed individually in stainless steel cages.
The plasma analytes concentration–time data from individual piglets were used to derive the maximum concentration (Cmax), and the time to maximum concentration (Tmax). The area under the plasma concentration–time curves from dosing time to the time of the last measurable concentration ( AUC0–tlast ) were calculated using the linear trapezoidal rule (Equation 1). (1) AUC0–tlast=∑0tlast(Ci−1+Ci/2)×(ti−ti−1) where Ci is the concentration obtained at the time i ( ti ).
The area under the plasma concentration time curve from t=0 to infinity ( AUC0–inf ) was obtained using Equation 2. […]

A short description of data set [2]: Population semiphysiologically based 9-compartment TK model (NLME) of plasma and urine data in piglets. The procedure:
The NLME model was therefore developed by combining the plasma and urinary data sets from the five TK experiments carried out in piglets, except for the urinary BPA concentration obtained after oral administration of BPA.
Different compartmental models and submodels were tested and compared using the likelihood ratio test (LRT). The primary parameters of the model, namely the volumes of distribution ( VBPA , VBPAG , VBPS , VBPSG ) and the first-order rate constants ( Kij ) and their associated precisions [standard error (SE)] were estimated by minimizing an objective function value (OFV) expressed as minus twice the log of the likelihood estimation ( −2LL ).
The between-subject variability (BSV) of the parameters was evaluated using the exponential model θparameter_i=θtv_parameter×exp(ηi) , where θparameter_i is the parameter estimated for the i^th individual, θtv_parameter is the typical population value of the parameter, and ηi is the deviation associated with the i^th individual from the corresponding value of the parameter at the population level. The distribution of ηi was assumed to be normal with a mean of 0 and a variance ω² . The BSV was reported as a coefficient of variation (CV) in the original scale CV(%)=100× exp (ω^2)−1 .
The residual variance was modeled using a combined additive and proportional error model Cobsij=Cpredij(1+ε1ij)+ε2ij where Cobsij and Cpredij are respectively the j^th observed and predicted concentrations for the i^th individual and ε1ij and ε2ij the multiplicative and additive residual errors.
The bootstrap tool (20 replicates) was used to evaluate the mean, median, SE, and coefficient of variation of the parameter estimates. The predictive ability of the model was checked graphically by plotting Visual Predictive Check plots to compare the observed data with the selected quantiles (here 20th, 50th and 80th percentiles) of data simulated using the model and obtained from 200–1,000 replicates from each animal based on the structure of the original data (i.e., dosing, timing and number of samples).
For the LRT test, the critical value of the χ^2 distribution considered for a given nominal risk and a given number of degrees of freedom was obtained using the Excel function CHISQ.INV.RT().
Figure 1. Schematic representation of the compartmental model. […] The link between the two central compartments was modeled with a compartment (CP2) that should be viewed as the liver. […] The fraction of absorbed BPA that is not hepatically transformed reaches the CP3 via K23 . The exchanges between CP2 and CP3 are bilateral, K32 being the rate constant between CP3 and CP2 and K23 the rate constant between CP2 and CP3. […] It was assumed that no phase-two metabolite other than BPAG (BPSG) was formed.
(12) Bioavailability=K12/K12+K110+K10×(1−K25/K25+K23) with K10 , K12 , K110 , K23; K25 as defined above.

Turning to `O=S(=O)(c1ccc(O)cc1)c1ccc(O)cc1` [BPS, bisphenol S], the “fraction escaping presystemic metabolism” value in data set [1] stood at 63%. Further, in data set [2] (bootstrap mean), the “tvK23, distribution rate constant liver to plasma, Mean” value was found to be 84.0 h⁻¹; the “tvK32, distribution rate constant, Mean” value was 7.119 h⁻¹; the “tvK34, distribution rate constant, Mean” value was determined as 0.270 h⁻¹; the “tvK43, distribution rate constant, Mean” value was found to be 0.519 h⁻¹. In data set [2] (bootstrap median), the “tvK23, distribution rate constant liver to plasma, Median” value came out at 83.489 h⁻¹; the “tvK32, distribution rate constant, Median” value is 7.091 h⁻¹; the “tvK43, distribution rate constant, Median” value was 0.512 h⁻¹. The “fraction of the dose reaching the liver unchanged” value in data set [2] (oral, % of administered dose) was approximately 100%. Further, in data set [2] (oral, % of the fraction reaching the liver), the “hepatic first-pass effect: fraction of compound reaching the liver that is glucuronidated” value is given as 41%. Also, the “Fraction of administered compound reaching the liver by the portal blood flow, Mean” value in data set [2] (oral, bootstrap mean) was 0.986. For the same compound, the “Fraction of administered compound reaching the liver by the portal blood flow, Median” value in data set [2] (oral, bootstrap median) is reported as 0.989. Also, the “tvV, volume of the central compartment, Mean” value in data set [2] (population primary parameter, bootstrap mean) worked out at 0.301 L/kg.
